Consider 1 molecule from article PMC8470279, “Biosynthesis of the Novel Endogenous 15-Lipoxygenase Metabolites N-13-Hydroxy-octodecadienoyl-ethanolamine and 13-Hydroxy-octodecadienoyl-glycerol by Human Neutrophils and Eosinophils” (Cells, 2021).

Amino acid sequences for entries named in this document (tags omitted).
UniProt P21554, whole entry: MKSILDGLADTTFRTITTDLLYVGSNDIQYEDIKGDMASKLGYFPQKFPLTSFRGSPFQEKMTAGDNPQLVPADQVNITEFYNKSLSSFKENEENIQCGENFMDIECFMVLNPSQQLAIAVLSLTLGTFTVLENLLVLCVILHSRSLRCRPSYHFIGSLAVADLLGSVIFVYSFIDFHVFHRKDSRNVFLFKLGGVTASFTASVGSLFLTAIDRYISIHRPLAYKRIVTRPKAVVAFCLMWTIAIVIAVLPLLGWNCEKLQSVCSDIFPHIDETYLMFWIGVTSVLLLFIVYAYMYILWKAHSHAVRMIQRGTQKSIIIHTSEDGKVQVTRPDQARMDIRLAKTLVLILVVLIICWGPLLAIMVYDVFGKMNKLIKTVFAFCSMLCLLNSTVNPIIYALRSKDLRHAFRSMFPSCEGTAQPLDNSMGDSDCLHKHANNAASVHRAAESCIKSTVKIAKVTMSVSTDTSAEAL
UniProt Q8NER1, whole entry: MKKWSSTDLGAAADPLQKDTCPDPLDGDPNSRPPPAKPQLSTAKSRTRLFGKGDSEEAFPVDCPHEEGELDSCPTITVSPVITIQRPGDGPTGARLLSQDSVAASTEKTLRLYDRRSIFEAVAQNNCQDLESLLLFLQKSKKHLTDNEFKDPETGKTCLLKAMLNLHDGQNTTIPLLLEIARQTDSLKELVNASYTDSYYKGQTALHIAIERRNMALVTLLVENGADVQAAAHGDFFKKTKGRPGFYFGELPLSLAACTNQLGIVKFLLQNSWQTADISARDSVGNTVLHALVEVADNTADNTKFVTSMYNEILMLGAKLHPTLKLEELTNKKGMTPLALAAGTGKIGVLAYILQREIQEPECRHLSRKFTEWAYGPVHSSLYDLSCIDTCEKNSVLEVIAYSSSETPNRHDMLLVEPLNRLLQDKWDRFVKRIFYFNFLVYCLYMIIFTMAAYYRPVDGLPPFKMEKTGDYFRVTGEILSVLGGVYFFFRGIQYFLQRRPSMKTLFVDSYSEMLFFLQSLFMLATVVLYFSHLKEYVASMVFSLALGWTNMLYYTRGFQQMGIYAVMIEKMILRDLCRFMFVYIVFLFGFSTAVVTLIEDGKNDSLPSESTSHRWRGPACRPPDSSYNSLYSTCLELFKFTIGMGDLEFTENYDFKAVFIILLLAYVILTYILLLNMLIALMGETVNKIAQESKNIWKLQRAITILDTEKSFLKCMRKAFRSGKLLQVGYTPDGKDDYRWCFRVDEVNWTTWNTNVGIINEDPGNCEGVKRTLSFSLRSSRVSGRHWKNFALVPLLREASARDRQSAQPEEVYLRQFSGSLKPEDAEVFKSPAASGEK
UniProt P34972, whole entry: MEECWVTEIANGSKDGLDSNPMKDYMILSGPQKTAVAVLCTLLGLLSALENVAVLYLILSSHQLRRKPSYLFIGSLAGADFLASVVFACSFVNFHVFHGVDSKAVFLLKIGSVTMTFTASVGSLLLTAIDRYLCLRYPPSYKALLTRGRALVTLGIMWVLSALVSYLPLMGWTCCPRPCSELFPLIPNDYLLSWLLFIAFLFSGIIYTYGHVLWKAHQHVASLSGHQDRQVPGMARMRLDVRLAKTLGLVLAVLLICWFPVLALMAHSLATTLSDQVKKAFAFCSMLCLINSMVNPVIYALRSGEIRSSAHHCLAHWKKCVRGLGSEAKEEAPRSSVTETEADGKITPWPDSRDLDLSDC

Common to all, as to settings: mean ± SD
For assay [1], the target named is human recombinant CB1 receptor (Homo sapiens, UniProt P21554). The assay is described as follows: CB1 receptor binding assay. Here is the method: (§1) The analysis of CB1 and CB2 receptor binding was performed exactly as described in [21].
The target in a further assay is human recombinant TRPV1 (Homo sapiens, UniProt Q8NER1). The assay is described as follows: TRPV1-mediated intracellular calcium elevation. The format is cell-based. From the text:
These assays we preformed exactly as described in [21].
In general terms: Calcium assays in cells follow changes in intracellular calcium, usually with a dye or a luminescent sensor.

In assay [2] the target is human recombinant CB2 receptor (Homo sapiens, UniProt P34972). Put plainly: CB2 receptor binding assay. Here is the method: as §1

pEC50, pIC50, pKi: −log10 of the molar value.

Usually pIC50 stands for −log10 of the IC50, conventionally taken in molar units. In general, pKi refers to the Ki on a negative log10 scale, so that one unit is a factor of ten. The term pEC50 denotes the negative decadic logarithm of the EC50, by convention in mol/L. For `CCCCC/C=C\C/C=C\C/C=C\C/C=C\CCCC(=O)OCC(O)CO` (centres unmarked), the “CB1 Receptor Max Tested (% Displacement)” value in assay [1] (10 µM) is reported as 10 µM (90.4 ± 1.3) %. In addition, the pIC50 in assay [1] (read-out: CB1 Receptor IC50) is 5.88; at human recombinant TRPV1 (read-out: Desensibilization (IC50), assayed using 100 nM capsaicin), 5.96; in assay [2] (read-out: CB2 Receptor IC50), 5.99. The pKi in assay [1] (read-out: CB1 Receptor Ki) was 6.82. The “Efficacy (% Max Response)” value on human recombinant TRPV1 (intracellular calcium elevation) is given as 58.9 ± 1.2%. The pEC50 on human recombinant TRPV1 (read-out: Potency (EC50), intracellular calcium elevation) was 6.41. Moreover, the “CB2 Receptor Max Tested (% Displacement)” value in assay [2] (10 µM) is recorded as 10 µM (75.52 ± 2.4) %.
